Earlier results on 1 molecule are cited in patent publication US20120018333A1, “Reducing Side Effects of Tramadol” (priority 2007, published 2012).

Amino acid sequences for entries named in this document (tags omitted).
UniProt P35372, whole entry: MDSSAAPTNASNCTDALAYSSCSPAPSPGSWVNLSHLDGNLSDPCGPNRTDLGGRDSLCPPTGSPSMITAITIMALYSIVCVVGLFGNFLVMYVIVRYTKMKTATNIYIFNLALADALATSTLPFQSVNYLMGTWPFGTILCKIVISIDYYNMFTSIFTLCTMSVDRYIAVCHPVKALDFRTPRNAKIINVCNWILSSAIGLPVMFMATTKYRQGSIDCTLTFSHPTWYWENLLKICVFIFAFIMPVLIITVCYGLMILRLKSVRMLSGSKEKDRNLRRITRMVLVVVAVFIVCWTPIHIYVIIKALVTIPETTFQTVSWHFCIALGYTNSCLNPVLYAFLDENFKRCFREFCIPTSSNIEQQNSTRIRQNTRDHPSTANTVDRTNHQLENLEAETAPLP

The data set addresses μ-opioid receptors (Homo sapiens, UniProt P35372). As to conditions: M1 versus tramadol; cited from earlier work.

Regarding `CN(C)C[C@H]1CCCC[C@]1(O)c1cccc(O)c1` [M1], the “potency in μ-opioid binding relative to tramadol” value is 200 times.
